## Membrane permeability of cyclic peptides

Data: CycPeptMPDB; original report Townsend et al. 2020, doi:10.26434/chemrxiv.13335941.v1.

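Conditions beyond the assay type are not listed; see the original paper. Other peptides of the study may be missing here. Entries at the database's floor value (log10 P of -10) are not listed.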

PAMPA measures passive passage through an artificial lipid membrane.
Permeability is in 10^-6 cm/s, converted from the database's log10 values; higher is more permeable.

SMILES | PAMPA (10^-6 cm/s)
CC(C)C[C@@H]1C(=O)N[C@@H](Cc2ccccc2)C(=O)N2CCC[C@H]2C(=O)N(C)[C@H](C)C(=O)N(C)[C@@H](CC(C)C)C(=O)N[C@@H](Cc2ccccc2)CC(=O)N2CCC[C@@H]2C(=O)N1C | 1.7
CCCN1CC(=O)N(C)[C@@H](CC(C)C)C(=O)N(C)[C@@H](CC(C)C)C(=O)N2CCC[C@@H]2C(=O)N[C@H](CC(C)C)C(=O)N[C@@H](Cc2ccccc2)C1=O | 4.8
CC(C)C[C@H]1NC(=O)[C@@H]2CCCN2C(=O)CN(Cc2ccccc2)C(=O)[C@@H](CC(C)C)NC(=O)[C@@H](C)N(C)C(=O)[C@H]2CCCN2C(=O)[C@H](Cc2ccccc2)NC1=O | 0.35
CC(C)C[C@@H]1NC(=O)[C@H](C)NC(=O)[C@H](Cc2ccccc2)NC(=O)[C@@H](CC(C)C)N(C)C(=O)[C@@H]2CCCN2C(=O)CN(Cc2ccccc2)C1=O | 0.98
CC(C)C[C@H]1C(=O)N(C)[C@@H](CC(C)C)C(=O)N2CCC[C@@H]2C(=O)N(Cc2ccccc2)CC(=O)N[C@@H](Cc2ccccc2)C(=O)N2CCC[C@H]2C(=O)N[C@H](C)C(=O)N1C | 2.7
CC(C)C[C@@H]1NC(=O)[C@@H](CC(C)C)N(C)C(=O)[C@@H](C)N(C)C(=O)[C@H]2CCCN2C(=O)[C@H](Cc2ccccc2)NC(=O)[C@@H](CC(C)C)N(C)C(=O)[C@@H]2CCCN2C1=O | 5.9
CC(C)C[C@@H]1NC(=O)[C@H](CC(C)C)N(C)C(=O)[C@@H](C)N(C)C(=O)[C@H]2CCCN2C(=O)[C@H](Cc2ccccc2)NC(=O)[C@@H](CC(C)C)NC(=O)[C@H]2CCCN2C1=O | 0.78
CC(C)C[C@H]1NC(=O)[C@H](C)NC(=O)[C@H]2CCCN2C(=O)[C@H](Cc2ccccc2)NC(=O)[C@H](CC(C)C)N(C)C(=O)[C@@H]2CCCN2C(=O)[C@H](CC(C)C)N(C)C1=O | 1.9
CC(C)C[C@H]1NC(=O)[C@@H]2CCCN2C(=O)CN(Cc2ccccc2)C(=O)[C@@H](CC(C)C)NC(=O)[C@@H](C)NC(=O)[C@H]2CCCN2C(=O)[C@H](Cc2ccccc2)NC1=O | 0.045
CCCN1CC(=O)N(C)[C@@H](CC(C)C)C(=O)N[C@@H](CC(C)C)C(=O)N2CCC[C@H]2C(=O)N(C)[C@@H](CC(C)C)C(=O)N[C@@H](Cc2ccccc2)C(=O)N2CCC[C@H]2C1=O | 7.9
CC(C)C[C@H]1C(=O)N[C@@H](Cc2ccccc2)CC(=O)N2CCC[C@H]2C(=O)N(C)[C@@H](CC(C)C)C(=O)N[C@@H](Cc2ccccc2)C(=O)N[C@H](C)C(=O)N1C | 4.8
CCCN1CC(=O)N(C)[C@@H](CC(C)C)C(=O)N(C)[C@H](CC(C)C)C(=O)N2CCC[C@@H]2C(=O)N(Cc2ccccc2)CC(=O)N[C@@H](Cc2ccccc2)C(=O)N2CCC[C@@H]2C1=O | 2.3
CC(C)C[C@@H]1NC(=O)[C@@H](CC(C)C)N(C)C(=O)[C@H](C)NC(=O)[C@H]2CCCN2C(=O)[C@H](Cc2ccccc2)NC(=O)[C@H](CC(C)C)N(C)C(=O)[C@@H]2CCCN2C1=O | 4.4

A selection of 2 entries from above:

| SMILES | PAMPA (10^-6 cm/s) |
|---|---|
| CC(C)C[C@@H]1NC(=O)[C@H](C)NC(=O)[C@H](Cc2ccccc2)NC(=O)[C@@H](CC(C)C)N(C)C(=O)[C@@H]2CCCN2C(=O)CN(Cc2ccccc2)C1=O | 0.98 |
| CC(C)C[C@H]1C(=O)N(C)[C@@H](CC(C)C)C(=O)N2CCC[C@@H]2C(=O)N(Cc2ccccc2)CC(=O)N[C@@H](Cc2ccccc2)C(=O)N2CCC[C@H]2C(=O)N[C@H](C)C(=O)N1C | 2.7 |